Results published in ChEMBL document CHEMBL5131515, “Identification of Pyridinyltriazine Derivatives as Potent panFGFR Inhibitors against Gatekeeper Mutants for Overcoming Drug Resistance” (J Med Chem, 2022).

The chains behind the UniProt entries cited, without tags or fusion partners. Where a name states a change or a piece, a line headed by the entry shows the natural chain unless it says otherwise.
UniProt P10721, whole entry: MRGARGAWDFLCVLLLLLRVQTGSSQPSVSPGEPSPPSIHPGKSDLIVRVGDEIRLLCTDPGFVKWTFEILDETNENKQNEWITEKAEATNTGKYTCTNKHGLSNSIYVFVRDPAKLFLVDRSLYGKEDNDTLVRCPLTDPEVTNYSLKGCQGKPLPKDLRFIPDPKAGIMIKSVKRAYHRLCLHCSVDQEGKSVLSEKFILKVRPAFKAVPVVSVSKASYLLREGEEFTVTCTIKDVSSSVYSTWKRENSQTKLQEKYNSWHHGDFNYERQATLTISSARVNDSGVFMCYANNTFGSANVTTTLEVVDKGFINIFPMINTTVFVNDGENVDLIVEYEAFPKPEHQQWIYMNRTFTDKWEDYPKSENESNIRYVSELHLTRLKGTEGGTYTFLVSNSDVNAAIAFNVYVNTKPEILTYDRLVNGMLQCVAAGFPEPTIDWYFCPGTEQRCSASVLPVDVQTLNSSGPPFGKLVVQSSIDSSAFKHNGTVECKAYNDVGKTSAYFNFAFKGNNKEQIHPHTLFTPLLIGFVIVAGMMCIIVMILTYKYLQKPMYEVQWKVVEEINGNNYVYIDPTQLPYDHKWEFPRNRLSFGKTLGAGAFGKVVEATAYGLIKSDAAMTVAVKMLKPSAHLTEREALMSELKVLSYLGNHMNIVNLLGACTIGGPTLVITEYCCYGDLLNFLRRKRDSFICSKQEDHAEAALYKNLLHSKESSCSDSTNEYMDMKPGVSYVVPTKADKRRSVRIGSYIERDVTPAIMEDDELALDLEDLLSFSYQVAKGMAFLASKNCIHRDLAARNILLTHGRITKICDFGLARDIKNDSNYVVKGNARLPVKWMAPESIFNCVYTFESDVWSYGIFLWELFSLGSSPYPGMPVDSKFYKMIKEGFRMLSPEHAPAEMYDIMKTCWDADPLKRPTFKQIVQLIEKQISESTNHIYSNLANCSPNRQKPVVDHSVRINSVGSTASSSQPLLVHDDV
UniProt P17948, whole entry: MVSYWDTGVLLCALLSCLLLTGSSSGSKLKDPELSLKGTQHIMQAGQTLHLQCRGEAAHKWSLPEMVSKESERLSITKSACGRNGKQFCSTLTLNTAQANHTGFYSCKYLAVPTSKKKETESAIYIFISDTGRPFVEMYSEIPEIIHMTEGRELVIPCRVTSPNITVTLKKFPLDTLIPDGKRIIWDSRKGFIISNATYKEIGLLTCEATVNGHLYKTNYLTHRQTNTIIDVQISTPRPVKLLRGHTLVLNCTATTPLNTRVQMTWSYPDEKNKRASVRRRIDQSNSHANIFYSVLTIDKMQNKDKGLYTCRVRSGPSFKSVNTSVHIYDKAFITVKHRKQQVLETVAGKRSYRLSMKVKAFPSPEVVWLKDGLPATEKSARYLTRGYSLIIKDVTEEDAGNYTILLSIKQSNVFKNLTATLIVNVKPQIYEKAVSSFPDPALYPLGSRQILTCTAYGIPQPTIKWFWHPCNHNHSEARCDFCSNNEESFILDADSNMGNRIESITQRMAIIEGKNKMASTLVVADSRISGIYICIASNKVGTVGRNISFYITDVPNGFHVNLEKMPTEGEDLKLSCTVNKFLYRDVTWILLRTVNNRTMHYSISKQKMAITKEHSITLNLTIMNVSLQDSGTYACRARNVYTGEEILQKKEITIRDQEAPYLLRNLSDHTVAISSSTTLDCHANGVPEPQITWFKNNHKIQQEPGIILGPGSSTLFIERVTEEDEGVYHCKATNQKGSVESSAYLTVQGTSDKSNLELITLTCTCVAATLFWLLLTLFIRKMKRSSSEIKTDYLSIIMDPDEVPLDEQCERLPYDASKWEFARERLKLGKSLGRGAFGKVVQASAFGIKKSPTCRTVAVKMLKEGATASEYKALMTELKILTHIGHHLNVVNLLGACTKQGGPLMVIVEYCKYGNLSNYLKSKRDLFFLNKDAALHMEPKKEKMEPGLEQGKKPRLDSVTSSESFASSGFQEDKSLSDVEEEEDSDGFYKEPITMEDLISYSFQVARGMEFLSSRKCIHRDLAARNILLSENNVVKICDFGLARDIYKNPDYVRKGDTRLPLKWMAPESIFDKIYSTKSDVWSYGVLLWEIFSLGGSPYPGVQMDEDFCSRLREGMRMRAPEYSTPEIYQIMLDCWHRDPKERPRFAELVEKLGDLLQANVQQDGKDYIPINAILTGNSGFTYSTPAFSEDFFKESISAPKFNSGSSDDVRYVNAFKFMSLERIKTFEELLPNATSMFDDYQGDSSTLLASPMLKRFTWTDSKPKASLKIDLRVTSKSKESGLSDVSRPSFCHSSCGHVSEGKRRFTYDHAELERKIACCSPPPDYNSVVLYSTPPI
UniProt Q00537: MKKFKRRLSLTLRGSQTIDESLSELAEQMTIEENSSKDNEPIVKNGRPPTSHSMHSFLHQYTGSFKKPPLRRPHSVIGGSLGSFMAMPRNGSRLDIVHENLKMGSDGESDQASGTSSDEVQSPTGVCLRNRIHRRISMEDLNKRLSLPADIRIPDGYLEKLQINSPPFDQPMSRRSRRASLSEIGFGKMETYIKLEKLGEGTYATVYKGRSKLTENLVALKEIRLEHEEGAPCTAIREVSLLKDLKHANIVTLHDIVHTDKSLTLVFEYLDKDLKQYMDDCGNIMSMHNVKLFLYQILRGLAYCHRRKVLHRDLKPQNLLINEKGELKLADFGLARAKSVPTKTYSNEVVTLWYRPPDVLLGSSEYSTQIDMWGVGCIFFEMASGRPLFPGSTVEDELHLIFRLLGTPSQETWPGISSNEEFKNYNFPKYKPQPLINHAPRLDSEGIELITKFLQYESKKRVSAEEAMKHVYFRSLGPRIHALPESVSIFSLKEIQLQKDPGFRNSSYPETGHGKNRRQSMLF
UniProt P35916, whole entry: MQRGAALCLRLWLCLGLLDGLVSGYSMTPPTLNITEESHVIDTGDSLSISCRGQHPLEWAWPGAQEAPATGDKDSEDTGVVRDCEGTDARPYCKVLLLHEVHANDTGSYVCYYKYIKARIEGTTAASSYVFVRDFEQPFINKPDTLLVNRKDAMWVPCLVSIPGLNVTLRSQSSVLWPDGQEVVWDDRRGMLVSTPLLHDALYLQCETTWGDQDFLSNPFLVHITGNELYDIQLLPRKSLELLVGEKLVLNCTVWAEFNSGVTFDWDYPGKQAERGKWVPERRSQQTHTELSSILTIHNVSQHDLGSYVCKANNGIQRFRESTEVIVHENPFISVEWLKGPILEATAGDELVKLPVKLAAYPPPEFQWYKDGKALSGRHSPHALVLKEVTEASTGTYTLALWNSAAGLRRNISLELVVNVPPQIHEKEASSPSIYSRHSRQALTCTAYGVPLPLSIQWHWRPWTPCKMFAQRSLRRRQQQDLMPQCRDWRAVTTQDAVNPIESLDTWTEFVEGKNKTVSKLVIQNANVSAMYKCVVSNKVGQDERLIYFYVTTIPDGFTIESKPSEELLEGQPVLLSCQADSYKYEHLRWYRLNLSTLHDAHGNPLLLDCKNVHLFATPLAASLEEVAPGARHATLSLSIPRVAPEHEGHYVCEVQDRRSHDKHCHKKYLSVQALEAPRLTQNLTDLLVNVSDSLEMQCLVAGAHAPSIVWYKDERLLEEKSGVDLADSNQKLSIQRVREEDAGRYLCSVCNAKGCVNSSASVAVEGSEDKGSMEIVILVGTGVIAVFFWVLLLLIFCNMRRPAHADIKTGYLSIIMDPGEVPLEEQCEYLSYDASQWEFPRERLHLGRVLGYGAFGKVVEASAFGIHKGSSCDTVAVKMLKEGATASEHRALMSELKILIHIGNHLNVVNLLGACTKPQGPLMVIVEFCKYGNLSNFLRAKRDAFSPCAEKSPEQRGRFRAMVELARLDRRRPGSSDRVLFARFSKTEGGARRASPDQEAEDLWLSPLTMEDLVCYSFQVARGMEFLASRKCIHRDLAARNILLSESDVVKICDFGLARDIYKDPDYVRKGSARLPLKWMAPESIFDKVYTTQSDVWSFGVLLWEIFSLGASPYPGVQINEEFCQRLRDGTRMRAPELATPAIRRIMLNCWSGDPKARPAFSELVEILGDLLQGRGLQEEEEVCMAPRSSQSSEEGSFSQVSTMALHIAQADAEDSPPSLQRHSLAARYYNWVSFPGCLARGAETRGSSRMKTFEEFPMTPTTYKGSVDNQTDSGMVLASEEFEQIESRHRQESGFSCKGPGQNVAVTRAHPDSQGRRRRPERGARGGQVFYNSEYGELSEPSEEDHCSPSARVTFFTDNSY
UniProt P06239: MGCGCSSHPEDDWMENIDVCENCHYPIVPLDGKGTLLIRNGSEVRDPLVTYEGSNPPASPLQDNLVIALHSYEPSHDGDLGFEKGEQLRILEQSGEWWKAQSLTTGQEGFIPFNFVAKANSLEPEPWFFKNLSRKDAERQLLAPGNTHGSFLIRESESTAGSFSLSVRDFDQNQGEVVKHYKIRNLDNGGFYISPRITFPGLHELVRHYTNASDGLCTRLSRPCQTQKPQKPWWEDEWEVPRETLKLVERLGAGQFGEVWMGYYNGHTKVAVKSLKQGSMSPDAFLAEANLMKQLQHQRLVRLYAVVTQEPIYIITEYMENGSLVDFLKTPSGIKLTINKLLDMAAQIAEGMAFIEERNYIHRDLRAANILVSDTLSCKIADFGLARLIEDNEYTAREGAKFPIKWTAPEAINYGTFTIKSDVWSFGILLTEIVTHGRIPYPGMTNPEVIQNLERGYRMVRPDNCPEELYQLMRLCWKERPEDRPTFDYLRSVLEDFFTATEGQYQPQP
UniProt P35968, whole entry: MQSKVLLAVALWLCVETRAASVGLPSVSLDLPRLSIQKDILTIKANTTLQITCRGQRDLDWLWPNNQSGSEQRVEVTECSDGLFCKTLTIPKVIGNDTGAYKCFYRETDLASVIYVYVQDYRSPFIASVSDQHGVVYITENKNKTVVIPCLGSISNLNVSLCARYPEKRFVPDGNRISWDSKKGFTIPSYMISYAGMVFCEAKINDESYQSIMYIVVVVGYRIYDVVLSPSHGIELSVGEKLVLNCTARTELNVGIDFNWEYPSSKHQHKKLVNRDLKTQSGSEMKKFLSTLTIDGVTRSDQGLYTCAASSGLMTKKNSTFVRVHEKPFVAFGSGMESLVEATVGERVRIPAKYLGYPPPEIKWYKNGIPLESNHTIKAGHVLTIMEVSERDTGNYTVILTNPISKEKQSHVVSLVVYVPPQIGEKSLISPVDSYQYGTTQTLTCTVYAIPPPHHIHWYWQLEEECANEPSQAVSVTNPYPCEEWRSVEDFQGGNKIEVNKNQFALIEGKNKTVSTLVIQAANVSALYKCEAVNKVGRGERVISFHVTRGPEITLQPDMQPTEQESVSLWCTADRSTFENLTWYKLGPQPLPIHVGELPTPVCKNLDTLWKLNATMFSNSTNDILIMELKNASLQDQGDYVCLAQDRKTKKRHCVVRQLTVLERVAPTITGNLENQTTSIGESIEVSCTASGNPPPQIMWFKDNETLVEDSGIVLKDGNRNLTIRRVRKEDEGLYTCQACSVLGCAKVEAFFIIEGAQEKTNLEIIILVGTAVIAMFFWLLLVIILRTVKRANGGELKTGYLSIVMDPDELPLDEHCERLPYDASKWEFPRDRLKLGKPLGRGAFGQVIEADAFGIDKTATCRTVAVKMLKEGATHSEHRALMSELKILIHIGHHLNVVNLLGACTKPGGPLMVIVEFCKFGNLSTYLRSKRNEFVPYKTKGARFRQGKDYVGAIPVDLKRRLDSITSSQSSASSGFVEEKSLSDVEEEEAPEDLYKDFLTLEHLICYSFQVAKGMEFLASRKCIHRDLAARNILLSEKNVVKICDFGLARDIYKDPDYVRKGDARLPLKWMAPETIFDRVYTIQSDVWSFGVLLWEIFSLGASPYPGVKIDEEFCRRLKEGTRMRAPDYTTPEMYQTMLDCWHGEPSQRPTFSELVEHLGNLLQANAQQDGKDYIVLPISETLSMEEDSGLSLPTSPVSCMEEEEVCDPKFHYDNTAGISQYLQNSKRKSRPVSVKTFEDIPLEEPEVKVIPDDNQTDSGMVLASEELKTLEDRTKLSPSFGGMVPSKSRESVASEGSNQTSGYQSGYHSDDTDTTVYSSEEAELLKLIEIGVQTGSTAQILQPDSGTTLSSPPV
UniProt P49760, whole entry, looked up: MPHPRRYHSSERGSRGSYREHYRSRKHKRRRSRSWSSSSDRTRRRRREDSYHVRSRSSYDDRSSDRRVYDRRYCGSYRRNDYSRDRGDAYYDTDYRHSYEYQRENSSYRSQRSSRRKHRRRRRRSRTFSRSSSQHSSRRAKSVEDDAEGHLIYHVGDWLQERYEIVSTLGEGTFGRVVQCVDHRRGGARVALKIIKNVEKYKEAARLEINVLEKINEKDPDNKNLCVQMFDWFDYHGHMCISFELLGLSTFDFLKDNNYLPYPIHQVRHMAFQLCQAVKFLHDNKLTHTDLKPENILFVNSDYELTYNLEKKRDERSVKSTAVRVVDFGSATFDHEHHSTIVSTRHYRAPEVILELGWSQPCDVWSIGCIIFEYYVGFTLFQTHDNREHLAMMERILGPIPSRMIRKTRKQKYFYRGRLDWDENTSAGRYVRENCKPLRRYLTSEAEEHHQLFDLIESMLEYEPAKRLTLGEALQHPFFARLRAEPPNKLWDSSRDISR

Tests used:
[1] = target: Mast/stem cell growth factor receptor Kit (Homo sapiens) (UniProt P10721); assay: Inhibition of KIT (unknown origin) at 1 uM by kinase-profiling analysis
[2] = target: Vascular endothelial growth factor receptor 1 (Homo sapiens) (UniProt P17948); assay: Inhibition of FLT1 (unknown origin) at 1 uM by kinase-profiling analysis
[3] = target: Cyclin-dependent kinase 17 (Homo sapiens) (UniProt Q00537); assay: Inhibition of PCTAIRE2 (unknown origin) at 1 uM by kinase-profiling analysis
[4] = target: T1, Mitogen-activated protein kinase kinase kinase 3 (Homo sapiens) (UniProt Q99759); assay: Inhibition of MAP3K3 (unknown origin) at 1 uM by kinase-profiling analysis
T1 sequence (whole entry): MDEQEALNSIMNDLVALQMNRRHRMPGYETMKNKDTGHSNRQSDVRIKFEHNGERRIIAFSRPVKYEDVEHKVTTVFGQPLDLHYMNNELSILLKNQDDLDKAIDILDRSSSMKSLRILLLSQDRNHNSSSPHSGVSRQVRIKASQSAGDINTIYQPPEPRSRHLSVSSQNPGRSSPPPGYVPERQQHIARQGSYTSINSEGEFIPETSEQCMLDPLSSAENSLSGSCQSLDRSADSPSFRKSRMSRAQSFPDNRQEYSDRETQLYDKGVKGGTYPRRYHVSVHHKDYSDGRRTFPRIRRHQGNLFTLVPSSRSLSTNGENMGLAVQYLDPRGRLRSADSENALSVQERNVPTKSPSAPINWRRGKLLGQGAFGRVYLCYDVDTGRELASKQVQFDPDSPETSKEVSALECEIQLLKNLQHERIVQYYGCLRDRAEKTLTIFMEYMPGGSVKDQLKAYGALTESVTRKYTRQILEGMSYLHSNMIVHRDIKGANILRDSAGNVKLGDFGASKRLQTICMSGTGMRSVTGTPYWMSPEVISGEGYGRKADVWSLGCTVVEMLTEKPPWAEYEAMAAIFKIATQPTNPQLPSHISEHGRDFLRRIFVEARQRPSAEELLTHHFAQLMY

[5] = target: Vascular endothelial growth factor receptor 3 (Homo sapiens) (UniProt P35916); assay: Inhibition of FLT4 (unknown origin) at 1 uM by kinase-profiling analysis
[6] = target: Epithelial discoidin domain-containing receptor 1 (Homo sapiens) (UniProt Q08345); assay: Inhibition of DDR1 (unknown origin) at 1 uM by kinase-profiling analysis
[7] = target: Tyrosine-protein kinase Lck (Homo sapiens) (UniProt P06239); assay: Inhibition of LCK (unknown origin) at 1 uM by kinase-profiling analysis
[8] = target: Tyrosine-protein kinase Lyn (Homo sapiens) (UniProt P07948); assay: Inhibition of LYN (unknown origin) at 1 uM by kinase-profiling analysis
[9] = target: Vascular endothelial growth factor receptor 2 (Homo sapiens) (UniProt P35968); assay: Inhibition of KDR (unknown origin) at 1 uM by kinase-profiling analysis
[10] = target: T2, Discoidin domain-containing receptor 2 (Homo sapiens) (UniProt Q16832); assay: Inhibition of DDR2 (unknown origin) at 1 uM by kinase-profiling analysis
T2 sequence (whole entry): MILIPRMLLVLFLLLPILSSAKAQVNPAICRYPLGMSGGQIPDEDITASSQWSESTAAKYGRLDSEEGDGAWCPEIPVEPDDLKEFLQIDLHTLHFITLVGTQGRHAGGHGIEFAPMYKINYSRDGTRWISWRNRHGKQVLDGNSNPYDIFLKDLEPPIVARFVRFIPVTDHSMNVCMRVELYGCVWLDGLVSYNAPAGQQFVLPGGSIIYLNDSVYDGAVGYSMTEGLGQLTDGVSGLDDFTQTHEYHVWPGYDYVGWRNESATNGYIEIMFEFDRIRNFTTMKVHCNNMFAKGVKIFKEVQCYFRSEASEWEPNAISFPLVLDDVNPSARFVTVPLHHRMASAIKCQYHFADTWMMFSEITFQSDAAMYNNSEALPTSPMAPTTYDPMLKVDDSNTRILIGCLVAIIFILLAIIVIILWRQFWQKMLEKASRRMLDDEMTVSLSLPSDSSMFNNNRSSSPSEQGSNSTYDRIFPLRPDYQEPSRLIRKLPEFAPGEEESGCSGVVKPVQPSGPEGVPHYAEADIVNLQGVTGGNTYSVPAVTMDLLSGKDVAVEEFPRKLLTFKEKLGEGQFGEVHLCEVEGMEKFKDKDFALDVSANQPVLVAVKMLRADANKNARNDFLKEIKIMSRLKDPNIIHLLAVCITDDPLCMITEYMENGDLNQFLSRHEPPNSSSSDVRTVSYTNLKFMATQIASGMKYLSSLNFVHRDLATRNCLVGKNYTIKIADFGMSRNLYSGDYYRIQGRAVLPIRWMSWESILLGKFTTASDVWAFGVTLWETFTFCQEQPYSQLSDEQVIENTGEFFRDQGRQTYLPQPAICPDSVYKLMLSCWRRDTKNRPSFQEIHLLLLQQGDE

[11] = target: Phosphorylase b kinase gamma catalytic chain, skeletal muscle/heart isoform (Homo sapiens) (UniProt Q16816); assay: Inhibition of PHKg1 (unknown origin) at 1 uM by kinase-profiling analysis
[12] = target: T3, Serine/threonine-protein kinase TAO1 (Homo sapiens) (UniProt Q7L7X3); assay: Inhibition of TAO1 (unknown origin) at 1 uM by kinase-profiling analysis
T3 sequence (whole entry): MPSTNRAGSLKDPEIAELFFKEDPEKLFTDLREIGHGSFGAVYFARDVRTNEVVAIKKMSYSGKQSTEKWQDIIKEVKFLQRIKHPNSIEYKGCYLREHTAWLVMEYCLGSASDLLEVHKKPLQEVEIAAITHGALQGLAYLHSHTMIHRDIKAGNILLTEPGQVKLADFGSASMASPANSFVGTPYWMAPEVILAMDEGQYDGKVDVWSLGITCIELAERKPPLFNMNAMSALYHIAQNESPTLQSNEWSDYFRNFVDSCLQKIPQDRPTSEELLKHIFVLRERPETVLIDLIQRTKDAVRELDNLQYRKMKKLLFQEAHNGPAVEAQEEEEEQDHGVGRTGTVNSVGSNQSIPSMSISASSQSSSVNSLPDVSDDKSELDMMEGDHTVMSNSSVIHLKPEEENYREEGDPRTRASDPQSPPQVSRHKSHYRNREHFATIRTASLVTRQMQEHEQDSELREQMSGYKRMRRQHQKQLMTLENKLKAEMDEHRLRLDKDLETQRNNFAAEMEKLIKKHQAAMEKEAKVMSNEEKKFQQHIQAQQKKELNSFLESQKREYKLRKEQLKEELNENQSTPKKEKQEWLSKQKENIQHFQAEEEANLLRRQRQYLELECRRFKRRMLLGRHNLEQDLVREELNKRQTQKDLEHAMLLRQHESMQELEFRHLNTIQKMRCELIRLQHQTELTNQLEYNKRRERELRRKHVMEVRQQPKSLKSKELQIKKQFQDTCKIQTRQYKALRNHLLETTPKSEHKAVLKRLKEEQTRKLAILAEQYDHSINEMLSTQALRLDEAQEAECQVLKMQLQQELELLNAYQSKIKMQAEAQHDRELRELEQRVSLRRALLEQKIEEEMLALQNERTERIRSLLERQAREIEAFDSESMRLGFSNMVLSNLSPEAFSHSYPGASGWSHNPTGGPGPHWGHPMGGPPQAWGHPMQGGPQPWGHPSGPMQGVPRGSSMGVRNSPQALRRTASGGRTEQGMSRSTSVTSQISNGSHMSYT

[13] = target: Cyclin-dependent kinase 6 (Homo sapiens) (UniProt Q00534); assay: Inhibition of CDK6 (unknown origin) at 1 uM by kinase-profiling analysis
[14] = target: Dual specificity protein kinase CLK2 (Homo sapiens) (UniProt P49760); assay: Inhibition of CLK2 (unknown origin) at 1 uM by kinase-profiling analysis
[15] = target: Cyclin-dependent kinase 16 (Homo sapiens) (UniProt Q00536); assay: Inhibition of PCTAIRE1 (unknown origin) at 1 uM by kinase-profiling analysis
[16] = target: T4, Serine/threonine-protein kinase MAK (Homo sapiens) (UniProt P20794); assay: Inhibition of MAK (unknown origin) at 1 uM by kinase-profiling analysis
T4 sequence (whole entry): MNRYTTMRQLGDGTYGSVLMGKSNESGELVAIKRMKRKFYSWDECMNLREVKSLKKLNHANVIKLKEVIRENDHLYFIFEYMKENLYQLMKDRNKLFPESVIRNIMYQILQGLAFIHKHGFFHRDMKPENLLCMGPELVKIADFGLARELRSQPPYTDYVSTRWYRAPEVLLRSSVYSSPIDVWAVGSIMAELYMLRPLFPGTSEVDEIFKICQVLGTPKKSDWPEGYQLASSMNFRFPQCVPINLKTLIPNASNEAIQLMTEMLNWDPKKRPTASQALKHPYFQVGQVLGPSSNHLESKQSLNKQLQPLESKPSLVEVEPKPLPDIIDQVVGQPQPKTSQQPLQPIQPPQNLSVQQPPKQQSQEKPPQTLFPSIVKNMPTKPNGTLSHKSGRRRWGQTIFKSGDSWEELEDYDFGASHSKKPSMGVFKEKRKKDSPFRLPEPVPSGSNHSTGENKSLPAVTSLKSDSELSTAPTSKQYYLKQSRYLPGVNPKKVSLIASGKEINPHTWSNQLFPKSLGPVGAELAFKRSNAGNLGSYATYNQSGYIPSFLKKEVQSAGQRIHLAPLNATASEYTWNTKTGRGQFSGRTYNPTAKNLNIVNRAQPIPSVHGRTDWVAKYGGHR

[17] = target: Proto-oncogene tyrosine-protein kinase ROS (Homo sapiens) (UniProt P08922); assay: Inhibition of ROS (unknown origin) at 1 uM by kinase-profiling analysis
[18] = target: Cyclin-dependent kinase 4 (Homo sapiens) (UniProt P11802); assay: Inhibition of CDK4 (unknown origin) at 1 uM by kinase-profiling analysis

inhibition [1] [%] | inhibition [2] [%] | inhibition [3] [%] | inhibition [4] [%] | inhibition [5] [%] | inhibition [6] [%] | inhibition [7] [%] | inhibition [8] [%] | inhibition [9] [%] | inhibition [10] [%] | inhibition [11] [%] | inhibition [12] [%] | inhibition [13] [%] | inhibition [14] [%] | inhibition [15] [%] | inhibition [16] [%] | inhibition [17] [%] | inhibition [18] [%] | SMILES
92.3 | 92 | 91.7 | 91.1 | 91.7 | 99.7 | 90.5 | 93.9 | 97.4 | 92.3 | – | – | – | – | – | – | – | – | COc1cc(OC)c(Cl)c(Nc2ncccc2-c2ncnc(Nc3cnn(C4CCN(C(C)C)CC4)c3)n2)c1Cl
– | – | 97.7 | – | – | 98 | 94.7 | 95 | – | – | 93.6 | 98.2 | 92.5 | 92.8 | 91.1 | 97.9 | 99 | 97.1 | CCN1CCN(c2ccc(Nc3ncnc(-c4cccnc4Nc4c(Cl)c(OC)cc(OC)c4Cl)n3)cc2)CC1
